The chains behind the UniProt entries cited, without tags or fusion partners. Where a name states a change or a piece, a line headed by the entry shows the natural chain unless it says otherwise.
UniProt O14746: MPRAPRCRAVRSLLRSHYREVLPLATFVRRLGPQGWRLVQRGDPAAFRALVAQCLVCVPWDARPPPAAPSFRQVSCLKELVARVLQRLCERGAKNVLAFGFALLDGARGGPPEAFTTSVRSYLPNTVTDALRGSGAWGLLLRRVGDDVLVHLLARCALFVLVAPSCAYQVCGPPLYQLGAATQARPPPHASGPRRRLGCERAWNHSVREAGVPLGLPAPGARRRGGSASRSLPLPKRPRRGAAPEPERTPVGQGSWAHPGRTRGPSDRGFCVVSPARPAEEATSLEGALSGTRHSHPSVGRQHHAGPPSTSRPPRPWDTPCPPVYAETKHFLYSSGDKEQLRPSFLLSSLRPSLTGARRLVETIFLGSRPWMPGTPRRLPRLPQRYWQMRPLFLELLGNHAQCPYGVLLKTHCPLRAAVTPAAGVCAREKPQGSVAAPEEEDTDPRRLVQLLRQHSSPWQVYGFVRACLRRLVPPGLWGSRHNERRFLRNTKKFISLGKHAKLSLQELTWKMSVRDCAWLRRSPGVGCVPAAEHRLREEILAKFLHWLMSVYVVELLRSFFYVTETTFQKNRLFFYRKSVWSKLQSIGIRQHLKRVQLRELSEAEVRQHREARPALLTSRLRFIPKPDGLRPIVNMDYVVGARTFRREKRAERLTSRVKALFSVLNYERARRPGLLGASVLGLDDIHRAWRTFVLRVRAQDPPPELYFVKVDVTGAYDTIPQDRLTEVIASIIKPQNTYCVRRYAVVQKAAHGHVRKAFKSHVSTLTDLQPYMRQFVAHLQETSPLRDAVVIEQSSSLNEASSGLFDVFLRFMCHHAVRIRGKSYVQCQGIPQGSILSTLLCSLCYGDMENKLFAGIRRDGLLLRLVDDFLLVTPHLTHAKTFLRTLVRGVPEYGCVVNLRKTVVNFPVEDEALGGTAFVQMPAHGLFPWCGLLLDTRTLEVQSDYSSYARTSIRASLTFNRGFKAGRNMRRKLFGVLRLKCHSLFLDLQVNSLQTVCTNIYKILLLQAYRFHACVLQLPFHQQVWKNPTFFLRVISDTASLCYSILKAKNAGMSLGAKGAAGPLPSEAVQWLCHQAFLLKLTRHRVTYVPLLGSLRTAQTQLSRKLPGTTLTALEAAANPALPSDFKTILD
UniProt P54274: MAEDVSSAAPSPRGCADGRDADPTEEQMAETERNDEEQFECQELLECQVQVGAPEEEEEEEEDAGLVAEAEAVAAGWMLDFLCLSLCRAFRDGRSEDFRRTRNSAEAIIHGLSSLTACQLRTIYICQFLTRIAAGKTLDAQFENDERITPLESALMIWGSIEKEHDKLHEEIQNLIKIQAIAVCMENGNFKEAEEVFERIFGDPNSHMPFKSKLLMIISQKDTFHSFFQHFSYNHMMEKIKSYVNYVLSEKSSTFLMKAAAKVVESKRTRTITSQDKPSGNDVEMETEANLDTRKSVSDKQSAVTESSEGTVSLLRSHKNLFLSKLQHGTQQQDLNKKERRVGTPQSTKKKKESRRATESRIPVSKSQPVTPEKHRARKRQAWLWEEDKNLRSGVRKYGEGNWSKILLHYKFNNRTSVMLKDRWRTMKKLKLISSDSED

According to US20040142357A1 (BETH ISRAEL DEACONESS MEDICAL CENTER, published 2004):

Assays:
[1] = target: T1, HA-hTERT (human TERT produced in cells as a HA epitope tagged protein) (human, UniProt O14746); assay: GST pulldown from cell extracts, immunoblot with anti-HA
T1 construct: In extracts of transiently transfected cells
Experimental: (§1) After extensive wash, the bound proteins were separated on SDS-containing gels, followed by detecting HA-hTERT and GFP-hTERT by immunoblot with anti-HA and GFP antibodies, respectively, and 35S-hTERT by autoradiography.
(§2) GST pulldown, immunoprecipitation and immunoblotting analysis were performed as described (Lu et al., 1999; Shen et al., 1998). Briefly, relevant proteins were expressed in HeLa or HT1080 cells by transient transfection, or translated in vitro using the TNT coupled transcription/translation kit (Promega) in the presence of [³⁵S]-Met, followed by lysis or dilution in a buffer containing 50 mM HEPES, pH 7.5, 150 mM NaCl, 100 mM NaF, 1 mM sodium orthovanadate, 10% glycerol, 1% Triton X100, 10 μg/ml aprotinin, 10 μg/ml leupeptin, 50 μg/ml phenylmethylsulfonyl fluoride and 1 mM DTT. The cellular supernatants were incubated with 1 μM GST or GST fusion proteins for 1 hr at 4° C. and 15 μl of glutathione agarose beads were then added, followed by further incubation for 2 h at 4° C. The precipitated proteins were washed 4 times in the same buffer and subjected to immunoblotting analysis. Other antibodies used for immunoprecipitation and immunoblotting analysis include anti-Pin2/TRF1 (Shen et al., 1997) and anti-hTERT antibodies (Novus). […]

[2] = target: T2, GFP-hTERT (human TERT produced in cells as a GFP fusion protein) (human, UniProt O14746); assay: GST pulldown from cell extracts, immunoblot with anti-GFP
T2 construct: In extracts of transiently transfected cells; not shown: GFP fusion partner
Experimental: as §1, §2

[3] = target: T3, [35S]-Pin2 (Pin2 synthesized by in vitro transcription and translation) (human, UniProt P54274 2-439, [35S]-Met labelled); assay: GST pulldown of in vitro translated protein, autoradiography
T3 sequence: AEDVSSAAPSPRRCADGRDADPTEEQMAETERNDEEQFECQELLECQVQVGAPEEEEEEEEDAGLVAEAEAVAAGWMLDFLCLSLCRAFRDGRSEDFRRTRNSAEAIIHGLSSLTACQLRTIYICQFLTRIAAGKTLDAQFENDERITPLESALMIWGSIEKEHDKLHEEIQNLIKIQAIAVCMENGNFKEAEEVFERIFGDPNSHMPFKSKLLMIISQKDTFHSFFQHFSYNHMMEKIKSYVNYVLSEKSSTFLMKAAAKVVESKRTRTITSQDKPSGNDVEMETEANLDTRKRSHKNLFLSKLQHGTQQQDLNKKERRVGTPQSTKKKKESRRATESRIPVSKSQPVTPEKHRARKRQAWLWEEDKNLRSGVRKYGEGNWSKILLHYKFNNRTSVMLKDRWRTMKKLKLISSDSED

[4] = target: 35S-hTERT (human TERT synthesized by in vitro transcription and translation) (human, UniProt O14746, [35S]-Met labelled); assay: as above

- binding result [1]: no binding (tested: 1 µM)
- binding result [2]: no binding (tested: 1 µM)
- binding result [3]: no binding (tested: 1 µM)
- binding result [4]: no binding (tested: 1 µM)
B1: GST (glutathione-S-transferase alone, on glutathione beads) (other, UniProt P08515 1-218, looked up)
chain: MSPILGYWKIKGLVQPTRLLLEYLEEKYEEHLYERDEGDKWRNKKFELGLEFPNLPYYIDGDVKLTQSMAIIRYIADKHNMLGGCPKERAEISMLEGAVLDIRYGVSRIAYSKDFETLKVDFLSKLPEMLKMFEDRLCHKTYLNGDHVTHPDFMLYDALDVVLYMDPMCLDAFPKLVCFKKRIEAIPQIDKYLKSSKYIAWPLQGWQATFGGGDHPPK
notes: Control protein; also called GST tag
